Measurements taken from PubChem BioAssay AID729 (The Scripps Research Institute Molecular Screening Center, 2007).
The list shows a part of the results, in another mix than the full data. Calls of active or inactive are those of the source. Rule as the data show it: active = activation above about 16%; inactive = the rest.

Sequences of proteins named here, by UniProt entry; tags and fusion partners are left off.
UniProt O95136, whole entry: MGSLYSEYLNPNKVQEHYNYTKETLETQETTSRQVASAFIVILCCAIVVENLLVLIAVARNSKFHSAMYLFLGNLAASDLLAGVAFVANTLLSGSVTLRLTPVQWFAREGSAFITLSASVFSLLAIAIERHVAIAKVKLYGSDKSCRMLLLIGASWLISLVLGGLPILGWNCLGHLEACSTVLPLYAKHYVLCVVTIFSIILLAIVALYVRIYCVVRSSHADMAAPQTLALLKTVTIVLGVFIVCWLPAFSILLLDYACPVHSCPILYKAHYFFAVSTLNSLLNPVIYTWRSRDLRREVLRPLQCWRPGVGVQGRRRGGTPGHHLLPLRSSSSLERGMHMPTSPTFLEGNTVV

The molecules below were run against Sphingosine 1-phosphate receptor 2 (Homo sapiens) (UniProt O95136) (assay: S1P2 receptor agonists, primary screen, cell-based (AID 729;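 also: 0% = vehicle low control and 100% = maximal reference agonist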)). Settings: S1P2-expressing cell line, agonist reporter read-out; at 4.5 µM; stronger effect = higher value.

| SMILES | activation |
| --- | --- |
| N#CC1(Nc2ccccc2)CCN(CCc2ccccc2)CC1 | inactive: -4.9% |
| O=C(NCC1(N2CCOCC2)CCCCC1)c1cc(=O)[nH]c2ccccc12 | inactive: -7.82% |
| CN1CCC(Nc2cccc(F)c2)CC1 | inactive: -2.94% |
| O=C(OC1CN2CCC1CC2)C1c2ccccc2Oc2ccccc21 (stereo not given) | inactive: 0.32% |
| O=C(NCC1(N2CCOCC2)CCCCC1)c1cc2ccccc2o1 | inactive: -5.94% |
| COc1ccc(NC2CCN(CCc3ccccc3)CC2)c(OC)c1 | inactive: -6.41% |
| CCOc1ncccc1C(=O)NCC1(N2CCOCC2)CCCCC1 | inactive: -4.7% |
| CCC(CO)(C(=O)OC1CN2CCC1CC2)c1ccccc1 (stereo not given) | inactive: -4.21% |
| N/C(=N\O)c1c(N)no[n+]1[O-] | inactive: -5.7% |
| c1ccc(CN2CCC(Nc3ccccc3)CC2)cc1 | inactive: -8.53% |
